The chains behind the UniProt entries cited, without tags or fusion partners. Where a name states a change or a piece, a line headed by the entry shows the natural chain unless it says otherwise.
UniProt P35372, whole entry, looked up: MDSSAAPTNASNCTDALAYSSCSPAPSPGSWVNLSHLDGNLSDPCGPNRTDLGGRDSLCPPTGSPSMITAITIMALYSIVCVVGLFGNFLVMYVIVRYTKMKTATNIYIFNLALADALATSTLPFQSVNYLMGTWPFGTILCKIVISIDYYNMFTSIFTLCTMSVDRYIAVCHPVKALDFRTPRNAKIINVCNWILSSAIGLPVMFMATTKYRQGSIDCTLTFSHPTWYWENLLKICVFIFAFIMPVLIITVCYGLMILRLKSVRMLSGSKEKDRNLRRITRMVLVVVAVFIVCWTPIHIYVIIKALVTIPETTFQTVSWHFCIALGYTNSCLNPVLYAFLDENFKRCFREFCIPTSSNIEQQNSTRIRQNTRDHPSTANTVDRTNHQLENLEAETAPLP
UniProt P41146: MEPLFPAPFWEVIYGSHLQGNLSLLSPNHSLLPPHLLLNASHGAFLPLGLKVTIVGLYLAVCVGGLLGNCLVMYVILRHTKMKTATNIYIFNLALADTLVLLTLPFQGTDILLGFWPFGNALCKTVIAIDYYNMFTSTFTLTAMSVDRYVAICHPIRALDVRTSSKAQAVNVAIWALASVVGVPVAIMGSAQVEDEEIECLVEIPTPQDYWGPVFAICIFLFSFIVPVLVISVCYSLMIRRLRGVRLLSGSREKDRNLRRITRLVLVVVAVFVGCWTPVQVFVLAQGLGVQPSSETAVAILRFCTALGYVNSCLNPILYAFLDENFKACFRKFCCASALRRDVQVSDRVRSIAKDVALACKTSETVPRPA

According to ChEMBL document CHEMBL4431392, “Treatment of Pain with Spirocylic Cyclohexane Derivatives Having Dual Specificity for ORL-1 and μ-Opioid Receptors” (2016):

What was measured:
Mu-type opioid receptor = Mu-type opioid receptor (Homo sapiens, UniProt P35372); assay: Displacement of [3H]-naloxone human mu-opioid receptor expressed in CHO-K1 cell membranes measured after 90 mins by beta-counter method
Nociceptin receptor = Nociceptin receptor (Homo sapiens, UniProt P41146); assay: Displacement of [3H]-nociceptin/orphanin FQ from recombinant ORL1 receptor (unknown origin) expressed in CHO cell membranes measured after 1 hr by scintillation counter method
Rattus norvegicus = assay: Analgesic activity in iv dosed Sprague-Dawley rat assessed as increase in pain latency measured up to 60 mins by tail-flick assay

| Structure (SMILES) | Ki (Mu-type opioid receptor) | Ki (Nociceptin receptor) | ED50 (Rattus norvegicus) |
| --- | --- | --- | --- |
| CN(C)C1(c2ccccc2)CCC2(CCN(CCC3(C#N)CCC3)C2)CC1 (stereo not given) | 3.5 nM | – | – |
| CN(C)C1(c2ccccc2)CCC2(CC1)CC(=O)N(CCC1(C#N)CCC1)C2 (stereo not given) | 1.2 nM | 1.6 nM | – |
| CCCCN1CCC2(CCC(c3cccs3)(N(C)C)CC2)C1 (stereo not given) | – | – | 0.414 mg/kg |
| Cc1ccsc1C1(N(C)C)CCC2(CCN(C(=O)CC(C)C)C2)CC1 (stereo not given) | 4.8 nM | 27 nM | – |
| CN(C)C1(c2ccccc2)CCC2(CCN(C(=O)CC3(C#N)CCC3)C2)CC1 (stereo not given) | 1 nM | 0.7 nM | 0.0152 mg/kg |
| CCCC(=O)N1CCC2(CCC(c3ccccc3)(N(C)C)CC2)C1 (stereo not given) | – | – | 0.157 mg/kg |
| CCCC(=O)N1CCC2(CCC(c3sccc3C)(N(C)C)CC2)C1 (stereo not given) | 7.6 nM | 15.5 nM | 0.00654 mg/kg |
| CN(C)C1(C2CCCC2)CCC2(CCN(C(=O)CC3CC3)C2)CC1 (stereo not given) | 4 nM | – | 0.00543 mg/kg |
